Test results reported in PubChem BioAssay AID625 (Vanderbilt High Throughput Screening Facility, 2007).
The entries are a selection whose mix differs from that of the whole data set. Active and inactive are the calls of the source.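 Rule for the calls: active = fluorescence slope after compound addition differing from the mean of all tested samples at 99.7% confidence, mostly higher but some lower; inactive = the rest.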

By UniProt entry, the sequences of proteins in these tests, tags left out.
UniProt P08173, whole entry, looked up: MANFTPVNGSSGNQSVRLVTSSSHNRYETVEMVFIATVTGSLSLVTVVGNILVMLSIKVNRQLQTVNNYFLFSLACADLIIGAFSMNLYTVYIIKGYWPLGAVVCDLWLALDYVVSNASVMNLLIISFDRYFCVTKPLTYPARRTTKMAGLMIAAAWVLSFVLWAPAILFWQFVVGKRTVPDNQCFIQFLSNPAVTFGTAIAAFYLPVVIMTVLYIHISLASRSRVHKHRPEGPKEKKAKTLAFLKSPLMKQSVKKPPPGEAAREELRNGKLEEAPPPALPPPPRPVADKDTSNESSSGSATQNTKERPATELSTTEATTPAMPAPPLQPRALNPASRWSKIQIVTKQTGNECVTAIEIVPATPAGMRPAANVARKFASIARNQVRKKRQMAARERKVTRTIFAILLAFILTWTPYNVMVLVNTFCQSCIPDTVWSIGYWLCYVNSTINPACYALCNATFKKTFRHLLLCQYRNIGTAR

These molecules were tested against Muscarinic acetylcholine receptor M4 (Homo sapiens) (UniProt P08173) (assay: compounds altering M4/GIRK thallium flux, either direction, primary screen, M4 allosteric agonist project, cell-based, HEK293 M4/GIRK, BTC-AM (AID 625;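 note: thallium influx through GIRK channels coupled to M4 in HEK293 cells with BTC-AM dye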)). Conditions: at 10 µM, actives lie on both sides.
`CN(C)CCOC(=O)C(O)(c1ccccc1)C1CCCCC1` (stereo unspecified) was tested, and the fluorescence slope was inactive: 0.00359.
